In PMC10763615, “Identification and engineering of potent cyclic peptides with selective or promiscuous binding through biochemical profiling and bioinformatic data analysis” (RSC Chemical Biology, 2023) one finds IC50 and Kd data, which are given here for one molecule.

Protein sequences, listed by entry. Tags and fused reporters are not part of them. Lines headed by an entry give the natural chain unless they say otherwise; changes in a name come on top. Residues count along the entry.
UniProt P11362, 22-376 limits assumed: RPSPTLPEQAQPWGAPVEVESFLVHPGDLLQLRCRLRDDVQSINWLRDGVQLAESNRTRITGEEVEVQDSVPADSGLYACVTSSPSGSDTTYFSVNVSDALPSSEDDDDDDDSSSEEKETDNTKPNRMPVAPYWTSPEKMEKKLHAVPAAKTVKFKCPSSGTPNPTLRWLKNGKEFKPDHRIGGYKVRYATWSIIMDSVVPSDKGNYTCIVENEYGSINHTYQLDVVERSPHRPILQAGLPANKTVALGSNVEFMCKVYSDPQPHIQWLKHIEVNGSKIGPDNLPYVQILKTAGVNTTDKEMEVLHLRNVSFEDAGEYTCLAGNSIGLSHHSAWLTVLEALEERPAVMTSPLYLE

Read-outs that look alike come from different tables or passages of the source. Where only a bound is given, the exact number is not on record here.

The target in assay [1] is T1, FGFR3c/BKL (Fc-fused human FGF-R3alpha(IIIc) with beta-klotho) (Homo sapiens, UniProt P22607).
T1 sequence (P22607 23-375 limits assumed): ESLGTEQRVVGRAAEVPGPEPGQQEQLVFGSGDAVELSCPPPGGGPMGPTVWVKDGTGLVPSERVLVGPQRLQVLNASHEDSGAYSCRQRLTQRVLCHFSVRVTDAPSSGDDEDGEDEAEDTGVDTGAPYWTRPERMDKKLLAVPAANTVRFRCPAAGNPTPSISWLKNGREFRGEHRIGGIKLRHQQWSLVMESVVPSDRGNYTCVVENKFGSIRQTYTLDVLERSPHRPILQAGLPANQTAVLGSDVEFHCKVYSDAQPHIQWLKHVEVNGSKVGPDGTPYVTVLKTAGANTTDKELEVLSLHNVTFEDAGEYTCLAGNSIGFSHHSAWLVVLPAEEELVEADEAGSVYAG
The experiment in a line: AlphaScreen FGF21 competitive binding assay.

In assay [2] the target is T2, FGF-R3C ECD (Homo sapiens, UniProt P22607).
T2 sequence (P22607 23-375 limits assumed): T1 sequence (P22607 23-375 limits assumed)
Description: biochemical. On the procedure: (§1) KD affinity binding measurements were obtained by biolayer interferometry (BLI) instruments (Fortebio Octet HTX, or Sartorius Octet RH16 using either 8 or 16 channel mode.
(§2) For single concentration binding experiments, 50 μM peptide stocks in folding buffer were diluted 1:50 in mRNA display selection buffer (PBS pH7.4 supplemented with 0.05% Tween-20 and 0.01% BSA) in either a 96 well black plate, or a 384 well tilted bottom microplate (ForteBio). Biotinylated FGF-R protein was loaded onto Streptavidin-functionalised biosensors (ForteBio) and immersed into ~1 μM peptide to obtain association kinetics curves. Dissociation kinetics curves were obtained by subsequent immersion of ligand-associated loaded sensors into a 1:50 dilution of folding buffer in mRNA display selection buffer. Fitted KD data was adjusted for concentration as determined by UPLC-CAD.
(§3) For accurate multi-concentration KD determination, dilution series of each peptide were made, and association and dissociation kinetics curves were obtained as above for each concentration to fit a multi-point KD binding model. Data collection and analysis was performed using the Octet Instrument Control […]
(§4) concentration assay kinetics curves shown in supplementary Figure S 19-24.

In assay [3] the target is T3, FGF-R1C ECD (Homo sapiens, UniProt P11362). Description: biochemical. The procedure: as §1, §2, §3, §4
For assay [4], the target named is FGFR1c/KLB (Fc-fused human FGF-R1alpha(IIIc) with beta-klotho) (Homo sapiens, UniProt P11362). Description: AlphaScreen FGF21 competitive binding assay.
The target of assay [5] is T2, FGF-R3C ECD. The experiment in a line: biochemical. The class given is binding. Also noted: DNA constructs for the extracellular domain (ECD) of human FGF-; HPC4 (C); made in house; host or cells: HEK 293-6E. On the procedure: as §1, §2, §3, §4
In assay [6] the target is T3, FGF-R1C ECD. Description: biochemical. The assay is classed as binding. Details: DNA constructs for the extracellular domain (ECD) of human FGF-; HPC4 (C); made in house; host or cells: HEK 293-6E. On the procedure:
as §1, §2, §3, §4

For `CSCC[C@@H]1NC(=O)[C@H](CC(N)=O)NC(=O)[C@H](CO)NC(=O)[C@@H](NC(=O)[C@@H](N)CCSC)CSSC[C@@H](C(=O)NCC(=O)N[C@@H](CO)C(=O)NCC(=O)N[C@@H](CO)C(=O)N[C@@H](CC(=O)O)C(=O)N[C@@H](Cc2ccc(O)cc2)C(=O)N[C@@H](CCCCN)C(=O)N[C@@H](CC(=O)O)C(=O)N[C@@H](CC(=O)O)C(=O)N[C@@H](CC(=O)O)C(=O)N[C@@H](CC(=O)O)C(=O)N[C@@H](CCCCN)C(N)=O)NC(=O)[C@H](C)NC(=O)[C@H](Cc2c[nH]c3ccccc23)NC(=O)[C@H](Cc2c[nH]c3ccccc23)NC(=O)[C@H](CCCNC(=N)N)NC(=O)[C@H](CC(N)=O)NC(=O)[C@H](C)NC(=O)[C@H](CC(C)C)NC(=O)[C@H](CCCCN)NC(=O)[C@H](Cc2c[nH]c3ccccc23)NC1=O` [1C.3], the concentration for half-maximal inhibition (IC50) in assay [1] was over 1 µM; in assay [4], 0.089 µM. Also, the dissociation constant Kd was over 1 µM at FGF-R3C ECD [2], 0.058 µM on FGF-R1C ECD [3], 0.03 µM on FGF-R3C ECD [5] and 0.112 µM at FGF-R1C ECD [6].
